TDP1 inh = blocks human tyrosyl-DNA phosphodiesterase 1 | actives 0.28% (n = 350,000) | recombinant TDP1, AlphaScreen DNA substrate cleavage | Potency, µM (highest dose often 130 µM), for the others: at the highest dose activity change, negative = inhibition, usual class: inhibitors; further: potency means the concentration at half of the fitted maximal effect; on the % scale 0 is the no-effect control and ±100 the full control effect; nearly all actives have a fitted effect of over 40% in size
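Compounds were preincubated with Tdp1 (1 nM final) for 15 min at room temperature before substrate (15 nM final) started a 5 min reaction; beads (10 ug/ml final) were then added for 10 min before AlphaScreen detection.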
TDP1 cell noCPT = qHTS for Inhibitors of human tyrosyl-DNA phosphodiesterase 1 (TDP1): qHTS in cells in absence of CPT; DT40 Tdp1-/- hTDP1 cells, no CPT, ATP luminescence, 48 h; Potency, µM (series often up to 46.2 µM), inactives show top-dose activity change, negative = growth inhibition, actives largely listed as inhibitors; actives 15% (n = 420,000); AID 686978, 2013; further: potency means the concentration at half of the fitted maximal effect; on the % scale 0 is the no-effect control and ±100 the full control effect; nearly all actives have a fitted effect of over 55% in size
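No-CPT arm: Tdp1-/-;hTDP1 DT40 cells (400/well) plus compounds, incubated ≥48 hr at 37 °C. Readout CellTiter-Glo luminescence.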
uPA generation = cell surface uPA generation inhibition | cell surface uPA generation assay, qHTS | Potency, µM (titrated, usually from 38.3 µM), without a hit: at the top dose activity change, negative = inhibition, actives largely listed as inhibitors | actives 0.31% (n = 330,000) | AID 540303; active means well fitted inhibition curve with a large enough effect; inconclusive means small, poorly fitted or top-dose-only effect; inactive means no such curve, though single readings can be large or run the other way; tested in mouse RAW 264.7 cells; further: potency means the concentration at half of the fitted maximal effect; on the % scale 0 is the no-effect control and ±100 the full control effect; nearly all actives have a fitted effect of over 55% in size
miR-21 reporter = raises the signal of a miR-21 reporter | HeLa miR-21 FLuc reporter, luciferase, 48 h | Potency, µM (highest dose often 38.3 µM), for inactives: at the highest dose reporter change, positive = more light | 340,000 tested, under 10 active | AID 2288; active = well fitted rising curve with a large enough effect; inconclusive = small, poorly fitted or top-dose-only effect; inactive = no such curve, though single readings can be large or run the other way;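 also: % of control where 0% means no effect; miR-21 action dims this reporter so a rising signal means less miR-21 action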
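Luminescence from a firefly luciferase reporter carrying a miR-21 binding site downstream, stably expressed under a CMV promoter in HeLa cells that make miR-21 endogenously, reports miRNA modulation after 48 h compound exposure up to approximately 40uM final.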
DT40 TDP1 CPT = growth inhibition of DT40 Tdp1-/-;hTDP1 cells with camptothecin (screen for TDP1 inhibitors); Potency, µM (doses to about 46.2 µM), without a hit: at the top dose activity change, negative = growth inhibition, hits mostly inhibitors; actives 12% (n = 420,000); AID 686979; chicken DT40 Tdp1-/-;hTDP1 cells + 20 nM CPT, ATP luminescence, 48 h; further: potency means the concentration at half of the fitted maximal effect; on the % scale 0 is the no-effect control and ±100 the full control effect; nearly all actives have a fitted effect of over 55% in size
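Cell growth measured by CellTiter-Glo luminescence after a minimum 48 h, 37 C compound exposure with 20 nM CPT in Tdp1-knockout DT40 cells stably expressing hTDP1, seeded 400/well; qHTS titration format.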
Active calls of the source: *; ? = inconclusive; . = no result. Hits are enriched below; roughly 16% of the tested compounds scored in any of these assays. Unless noted, the call rests on the fitted dose curve; in most records, active means well fitted curve in the direction sought with a large enough effect; inconclusive means small, poorly fitted or top-dose-only effect, or another doubt; inactive means no such curve, though single readings can be large; an effect the other way counts as inactive or inconclusive.

SMILES	TDP1 inh	TDP1 cell noCPT	uPA generation	miR-21 reporter	DT40 TDP1 CPT
CCN1CCN(CCCNC(=O)Cn2c(-c3cccs3)cc3cc(Cl)ccc32)CC1	5%	?	.	-7%	?
O=C(O)Cn1c(-c2cccs2)cc2cc(Cl)ccc21	-8%	1%	.	-4%	-18%
CCN(CC)CCCNC(=O)Cn1c(-c2cccs2)cc2cc(Cl)ccc21	6%	21µM*	.	-1%	?
O=C(Nc1c2c(nn1-c1ccccc1)CS(=O)C2)c1ccc(Br)o1 (stereo not drawn)	2%	16%	0%	-2%	4%
Cc1cc(C)n2nc(C(=O)Nc3ccc4c(c3)CCC4)nc2n1	-1%	-22%	1%	-25%	6%
Cc1nc(SCc2nc3ccccc3[nH]2)c2oc3cc(Br)ccc3c2n1	0%	.	-16%	.	.
COc1ccc(-c2cc(C(=O)Nc3cc(C(F)(F)F)ccc3Cl)no2)cc1	4%	0%	.	-1%	5%
Cc1ccc(CC2CC(=O)N(c3cc(Cl)ccn3)C2=O)cc1 (stereo not drawn)	6%	-2%	0%	4%	11%
COc1ccc(CN2C(=O)COc3ccccc32)cc1	.	-20%	0%	1%	-1%
COc1ccc(CC2(CO)COc3ccccc3C2=O)cc1 (stereo not drawn)	.	16µM*	-7%	.	?
Cc1nn(-c2ccccc2)c(C)c1-c1nnc(-c2c(C)nn(-c3ccccc3)c2C)o1	5%	18µM*	5%	-3%	?
Cc1nn(-c2ccccc2)c(C)c1-c1nnc(C(F)(F)F)o1	.	-17%	7%	-11%	-13%
Cc1ccc2oc(C(=O)N3CCC(C(N)=O)(N4CCCCC4)CC3)c(C)c2c1	4%	?	-1%	4%	?
Cc1cc(C)cc(-n2c(SCC(=O)Nc3ccc4c(c3)OCO4)nc3c([nH]c4ccccc43)c2=O)c1	5%	-4%	.	1%	-11%
CC(=O)c1ccc(N2CCN(C(=O)c3cccc(Oc4ccccc4)c3)CC2)cc1	6%	18µM*	0%	-3%	16µM*
CC(=O)c1ccc(N2CCN(C(=O)c3ccc4c(c3)OCO4)CC2)cc1	0%	?	-12%	-9%	?
CC(C)CC(=O)N1CCN(C(=O)c2ccc(-c3ccccc3)cc2)CC1	4%	23µM*	-13%	-1%	?
CC(=O)c1ccc(N2CCN(C(=O)c3ccc(-c4ccccc4)cc3)CC2)cc1	-3%	13µM*	1%	-13%	?
CCn1nnc(-c2ccccc2NC(=O)c2cccc(-n3cnnn3)c2)n1	-8%	-21%	3%	-5%	-10%
CC(=O)n1cc(CO)c2ccccc21	.	-3%	-1%	1%	-12%
C=C(c1cn(C(C)=O)c2ccccc12)c1cn(C(C)=O)c2ccccc12	.	?	1%	.	23µM*
C[n+]1c(/C=C/c2ccnc3ccccc23)cc(/C=C/c2ccnc3ccccc23)c2ccccc21	.	2.5µM*	.	.	5µM*
O=C(/C=C/c1ccnc2ccccc12)c1cccs1	-5%	13µM*	0%	-53%	4.6µM*
Cn1cc(C=C2C(=O)Nc3cccnc32)c2ccccc21	13%	.	.	.	.
O=[N+]([O-])c1ccccc1/C=C/c1ccnc2ccccc12	.	14µM*	.	.	?

Seven entries from above, set out differently.
| molecule | TDP1 inh | TDP1 cell noCPT | uPA generation | miR-21 reporter | DT40 TDP1 CPT |
| --- | --- | --- | --- | --- | --- |
| Cc1nn(-c2ccccc2)c(C)c1-c1nnc(-c2c(C)nn(-c3ccccc3)c2C)o1 | 5% | 18µM* | 5% | -3% | ? |
| Cc1nn(-c2ccccc2)c(C)c1-c1nnc(C(F)(F)F)o1 | . | -17% | 7% | -11% | -13% |
| Cc1ccc2oc(C(=O)N3CCC(C(N)=O)(N4CCCCC4)CC3)c(C)c2c1 | 4% | ? | -1% | 4% | ? |
| Cc1cc(C)cc(-n2c(SCC(=O)Nc3ccc4c(c3)OCO4)nc3c([nH]c4ccccc43)c2=O)c1 | 5% | -4% | . | 1% | -11% |
| CC(=O)c1ccc(N2CCN(C(=O)c3cccc(Oc4ccccc4)c3)CC2)cc1 | 6% | 18µM* | 0% | -3% | 16µM* |
| CC(=O)c1ccc(N2CCN(C(=O)c3ccc4c(c3)OCO4)CC2)cc1 | 0% | ? | -12% | -9% | ? |
| CC(C)CC(=O)N1CCN(C(=O)c2ccc(-c3ccccc3)cc2)CC1 | 4% | 23µM* | -13% | -1% | ? |

More entries follow:
SMILES	TDP1 inh	TDP1 cell noCPT	uPA generation	miR-21 reporter	DT40 TDP1 CPT
Cn1cc(/C=C/c2ccnc3ccccc23)c2ccccc21	.	11µM*	.	.	?
COc1ccc(CCNC(=O)CNC(=O)Cn2ccc3ccccc3c2=O)cc1OC	4%	0%	1%	-3%	13%
CSc1ccc(/C=C/c2ccnc3ccccc23)cc1	.	-5%	.	.	8%
C(=C\c1ccnc2ccccc12)/c1ccnc2ccccc12	.	18µM*	.	.	?
N#CC(=Cc1ccnc2ccccc12)c1ccccc1	.	21µM*	.	.	?
O=Cc1ccnc2ccccc12	.	-92%	.	.	2.8µM*
CSc1nc2ccccc2cc1/C=C(\C#N)c1ccccc1	-2%	?	-16%	16%	?
Oc1cc(O)c(/C=C/c2ccnc3ccccc23)c(O)c1	.	-18%	.	.	11%
C=Nc1ccc(/C=C/c2ccnc3ccccc23)cc1	.	11µM*	.	.	22µM*
Nc1ccccc1/C=C/c1ccnc2ccccc12	.	3.2µM*	.	.	5µM*
O=CNc1ccc(/C=C/c2ccnc3ccccc23)cc1	.	14µM*	.	.	13µM*
C(=C\c1ccccn1)/c1cccnc1	.	.	.	-38%	.
C(=C\c1ccnc2ccccc12)/c1cccnc1	.	13µM*	.	.	?
O=C(NCc1ccccc1)C(C1CC1)n1c(CSCCOc2ccccc2)nc2ccccc21 (stereo not drawn)	.	16µM*	.	.	?
O=C(NCc1ccccc1)C(C1CC1)n1c(-c2cccs2)nc2ccccc21 (stereo not drawn)	.	9.2µM*	.	.	10µM*
O=C(O)Cn1c(SCCOc2ccccc2)nc2ccccc21	1%	-20%	4%	-2%	-3%
O=C(NC1CCCC1)C(C1CC1)n1c(-c2ccccn2)nc2ccccc21 (stereo not drawn)	.	7.3µM*	.	.	9.2µM*
O=C(NCc1ccccc1)C(c1ccccc1)n1c(-c2ccccn2)nc2ccccc21 (stereo not drawn)	.	-25%	.	.	-24%
CC(C(=O)NC1CCCC1)n1c(C2CC2)nc2ccccc21 (stereo not drawn)	.	0%	.	.	-21%
COc1cc2cc(C(=O)N(C)Cc3ccccc3)[nH]c2cc1OC	.	15%	6%	-1%	-19%
Cc1ccc(CCNC(=O)CSCc2nc(-c3ccc(C)cc3)oc2C)cc1	5%	?	.	23%	-108%
COc1cccc(C(=O)Nc2ccc(C(=O)NCC(C)C)cc2)c1	3%	?	-1%	-6%	-20%
CCOC(=O)C1=CC[C@H]2c3c(c4ccccc4n3C)C(=O)C1N2C(=O)OC(C)(C)C	3%	?	5%	.	?
COc1ccc(Nc2cc(Nc3cccc(OC)c3)ncn2)cc1	.	?	-6%	-72%	-26%
Cn1c(=O)c2c(nc(CN3CCN(c4cccc(Cl)c4)CC3)n2CCc2ccccc2)n(C)c1=O	.	10µM*	-1%	.	13µM*
Cn1c(=O)c2c(nc(CN3CCCCC3)n2CCc2ccccc2)n(C)c1=O	2%	?	1%	0%	-15%
Cn1c(=O)c2c(nc(CN3CCN(c4ccccc4)CC3)n2CCc2ccccc2)n(C)c1=O	.	23µM*	5%	.	23µM*
CCOc1ccc(S(=O)(=O)/N=C(\N)c2ccccc2)cc1	.	12µM*	0%	6%	23µM*
O=S(=O)(/C=C/c1ccccc1)N1CCN(Cc2ccc3c(c2)OCO3)CC1	4%	?	10%	-3%	-7%

Screens as filed in PubChem BioAssay.
